# Results reported in patent EP0606463B1, “NEUROMEDIN B RECEPTOR ANTAGONISTS” (The Administrators of The Tulane Educational Fund, priority 1992, dated 1994).
# Sequences of proteins named here, by UniProt entry; tags and fusion partners are left off. A change or cut given only in a name is not applied to a line headed by its entry.
# UniProt P52500: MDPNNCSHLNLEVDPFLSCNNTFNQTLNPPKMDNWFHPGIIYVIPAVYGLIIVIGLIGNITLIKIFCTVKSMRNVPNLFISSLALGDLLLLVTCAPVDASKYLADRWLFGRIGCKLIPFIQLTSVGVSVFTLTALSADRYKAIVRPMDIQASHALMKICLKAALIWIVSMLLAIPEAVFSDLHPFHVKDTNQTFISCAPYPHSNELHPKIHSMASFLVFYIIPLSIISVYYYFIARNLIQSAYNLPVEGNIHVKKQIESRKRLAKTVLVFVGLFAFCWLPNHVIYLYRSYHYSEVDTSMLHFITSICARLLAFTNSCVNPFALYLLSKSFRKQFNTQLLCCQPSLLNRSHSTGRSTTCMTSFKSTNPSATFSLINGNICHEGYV
# Biological target: T1, GRP Receptor (Rattus norvegicus, UniProt P52500)
# T1 construct: from tissue; host or cells: dispersed pancreatic acini
# Test: Amylase release from rat pancreatic acini
# Assay type: cell-based
structure (smiles),measurement,setting,value
"C[C@@H](O)[C@H](NC(=O)[C@@H]1CSSC[C@H](NC(=O)[C@H](N)Cc2ccc3ccccc3c2)C(=O)N[C@@H](Cc2ccccc2)C(=O)N[C@H](Cc2c[nH]c3ccccc23)C(=O)N[C@@H](CCCCN)C(=O)N[C@@H]([C@@H](C)O)C(=O)N1)C(N)=O [Analog #18, [Phe^3, Thr^6,8]-cycle SS-octa]",Rat Pancreatic Acini Amylase Release Alone (10µM),"analog 10 µM alone, no-additive control 4 ± 1",3 ± 1 % total
same,Rat Pancreatic Acini Amylase Release Plus Bn(0.3 nM),"analog 10 µM plus Bn 0.3 nM, Bn without analog 15 ± 1",14 ± 1 % total
